Source: ChEMBL document CHEMBL1138325, “Design, synthesis, in vitro, and in vivo characterization of phenylpiperazines and pyridinylpiperazines as potent and selective antagonists of the melanocortin-4 receptor” (J Med Chem, 2007)

System: Caco-2
Experiment: Ratio of permeability from basolateral to apical side over apical to basolateral side of Caco-2 cells
Format: ADME, cell-based
Conditions: human

Cc1ccc(N2CCN(C(=O)[C@H](C)Cc3ccc(Cl)cc3)CC2)c([C@@H](N)CC(C)C)c1
Ratio: 4.4
